Assay results taken from patent US20230115176A1 (Ra Pharmaceuticals, Inc., priority 2019, published 2023).

Chains of the proteins cited; added tags and fusions are not shown. Residues count along the entry.
UniProt P01031, 19-1676 limits assumed: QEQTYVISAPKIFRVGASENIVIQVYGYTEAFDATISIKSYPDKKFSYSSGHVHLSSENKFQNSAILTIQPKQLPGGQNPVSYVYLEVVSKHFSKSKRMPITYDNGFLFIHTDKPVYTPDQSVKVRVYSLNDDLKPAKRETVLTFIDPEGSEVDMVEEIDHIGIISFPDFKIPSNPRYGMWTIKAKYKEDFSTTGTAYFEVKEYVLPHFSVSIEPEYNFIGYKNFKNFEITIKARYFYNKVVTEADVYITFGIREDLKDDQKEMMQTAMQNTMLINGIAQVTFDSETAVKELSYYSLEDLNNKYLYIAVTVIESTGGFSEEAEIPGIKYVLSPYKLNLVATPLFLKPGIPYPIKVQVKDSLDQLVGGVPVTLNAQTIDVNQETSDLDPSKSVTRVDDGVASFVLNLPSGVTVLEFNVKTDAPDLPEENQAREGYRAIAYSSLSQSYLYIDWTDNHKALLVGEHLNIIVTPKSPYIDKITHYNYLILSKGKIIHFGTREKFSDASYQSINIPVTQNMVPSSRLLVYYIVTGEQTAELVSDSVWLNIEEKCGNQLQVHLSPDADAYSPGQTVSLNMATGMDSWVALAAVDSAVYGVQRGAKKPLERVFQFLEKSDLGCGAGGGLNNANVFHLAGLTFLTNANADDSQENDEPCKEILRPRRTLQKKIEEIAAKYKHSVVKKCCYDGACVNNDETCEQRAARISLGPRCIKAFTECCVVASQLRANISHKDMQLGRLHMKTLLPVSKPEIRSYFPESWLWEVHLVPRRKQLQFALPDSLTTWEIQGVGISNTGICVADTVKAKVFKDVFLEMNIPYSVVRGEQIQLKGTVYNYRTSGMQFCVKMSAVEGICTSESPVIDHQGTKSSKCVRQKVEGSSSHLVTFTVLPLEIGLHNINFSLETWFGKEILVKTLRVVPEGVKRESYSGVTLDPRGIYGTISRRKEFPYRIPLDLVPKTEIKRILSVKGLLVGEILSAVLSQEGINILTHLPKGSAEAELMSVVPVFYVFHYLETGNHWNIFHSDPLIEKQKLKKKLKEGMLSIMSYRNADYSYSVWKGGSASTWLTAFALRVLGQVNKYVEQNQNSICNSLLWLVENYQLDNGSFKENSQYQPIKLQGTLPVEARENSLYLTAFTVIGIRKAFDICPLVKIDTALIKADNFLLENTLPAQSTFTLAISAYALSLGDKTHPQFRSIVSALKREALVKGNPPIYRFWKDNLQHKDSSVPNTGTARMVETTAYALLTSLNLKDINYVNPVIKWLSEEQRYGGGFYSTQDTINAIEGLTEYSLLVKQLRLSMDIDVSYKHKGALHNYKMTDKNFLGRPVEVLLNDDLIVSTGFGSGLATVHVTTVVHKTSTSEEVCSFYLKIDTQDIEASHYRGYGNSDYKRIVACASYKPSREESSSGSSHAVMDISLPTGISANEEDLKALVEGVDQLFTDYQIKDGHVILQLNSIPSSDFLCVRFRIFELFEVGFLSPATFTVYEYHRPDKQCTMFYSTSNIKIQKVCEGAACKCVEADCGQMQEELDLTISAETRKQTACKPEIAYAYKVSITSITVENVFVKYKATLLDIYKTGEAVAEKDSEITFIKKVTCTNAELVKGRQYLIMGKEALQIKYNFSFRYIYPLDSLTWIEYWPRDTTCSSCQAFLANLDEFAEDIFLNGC

Target: Human C5 (Homo sapiens, UniProt P01031)
Assay: Hemolysis assay, luminescent, classical complement pathway (Example 4, Table 7)
Format: cell-based
Conditions: sheep EA cells, […] C5-depleted human serum, 0.5 nM human C5, luminescence readout

C=CC(=O)NCc1cc(OC)c(OCCCCC)cc1NC(=O)N1CCC[C@@H]1c1ccccc1Cl
IC50: 0.137 µM
